Data on one substance can be found in patent US11590163B2, “Iron-fortified food composition” (SOCIETE DES PRODUITS NESTLE S.A., priority 2017, dated 2023).

The nature of the series: Colour change in iron-fortified bouillon (CIELAB ΔEab*). It is filed as physicochemical. The note with it: chicken bouillon containing curcumin, approx. 5.5 mg iron per 6.55 g powder, reconstituted in 250 mL boiling water, 60° C. min. 30 minutes; vs bouillon with no iron. Here is the method: Commercial Maggi Chicken Bouillon (Nestle Nigeria) containing curcumin was iron fortified by the addition of iron (III) complexes from Example 1, as well as ferrous sulphate (Dr. P. Lohmann GmbH KG) Ref1, and […] (Dr. P. Lohmann GmbH KG) Ref2. The amounts were chosen to provide approximately 5.5 mg of iron per 6.55 g of bouillon powder. A further sample without iron fortification was also prepared in the same manner. All samples were reconstituted in 250 mL of boiling water and kept at 60° C. for a minimum of 30 minutes.
Colour measurements were performed in 2.6×1 cm quartz cuvettes using an XRite ColorEye 7000A colorimeter. The colorimeter was set up with a D65 light source, 10 degree observer angle, specular component included and Large area View (LAV). The colour difference between the beverage with no iron salt and the iron-fortified beverages was measured for each material and expressed as ΔEab* using the CIELAB colour scale (Table 2).

Turning to ferric pyrophosphate [Ref2], the “Δ E” value was determined as 6.1.
